Measurements taken from patent US5552419A, “Arylsulfonamido-substituted hydroxamic acids” (Ciba-Geigy Corporation, priority 1993, dated 1996).

Assays:
[1] = biological target: T1, Human recombinant fibroblast collagenase (Homo sapiens, UniProt P03956); experiment: collagenase activity, digestion of bovine type I collagen; assay type: biochemical; conditions: 2 hours at 35° C., read-out: Ki for inhibition of collagenase
T1 sequence (P03956 100-469): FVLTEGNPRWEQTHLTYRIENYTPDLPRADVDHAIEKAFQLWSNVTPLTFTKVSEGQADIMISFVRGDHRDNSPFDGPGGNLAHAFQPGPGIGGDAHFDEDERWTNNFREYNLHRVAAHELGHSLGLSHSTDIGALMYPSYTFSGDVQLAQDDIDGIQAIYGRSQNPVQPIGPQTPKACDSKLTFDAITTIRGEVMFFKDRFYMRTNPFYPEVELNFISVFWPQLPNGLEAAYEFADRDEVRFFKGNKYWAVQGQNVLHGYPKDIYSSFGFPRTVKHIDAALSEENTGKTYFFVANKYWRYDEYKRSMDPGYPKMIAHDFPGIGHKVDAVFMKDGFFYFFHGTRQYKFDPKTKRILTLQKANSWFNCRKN

[2] = biological target: truncated recombinant mouse macrophage metalloelastase; conditions: read-out: IC50 for inhibition of degradation of [^3 H] elastin; pH 8.0, 37° C. overnight

Work on `COc1ccc(S(=O)(=O)N(Cc2cccnc2)[C@@H](C(=O)NO)C(C)C)cc1.Cl` [N-hydroxy-2(R)-[[4-methoxybenzenesulfonyl](3-picolyl)amino]-3-methylbutanamide hydrochloride] yielded a Ki [1] of 62 nM and an IC50 [2] of roughly 8 nM.
